## Apparent affinities of Ab-95 variants for a coronavirus HR2 peptide

Source: Engelhart et al. 2022 (doi:10.1038/s41597-022-01779-4), MIT Lincoln Laboratory and A-Alpha Bio; data file from the FLAb repository.

Binding partner: SARS-CoV-2 spike HR2 peptide, sequence PDVDLGDISGINAS.

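The parent was found by panning a naive human phage display library on the peptide. Variants in AAYL52 differ from the parent at up to three CDR positions; double and triple changes were sampled at random. Affinity was read by AlphaSeq, a pooled yeast mating assay with surface-displayed partners. After mating in shaken culture at 30 °C for 16 h, diploids were selected and their barcode pairs sequenced. Read counts were normalised to the haploid input and turned into Kd by a linear fit to BCL2-family pairs of known affinity, for each replicate. Mating was done three times.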

Each scFv is VH, a (GGGGS)3 linker, VL, as in the parent Ab-95, and differs from it in the CDRs of the light chain only.
VH: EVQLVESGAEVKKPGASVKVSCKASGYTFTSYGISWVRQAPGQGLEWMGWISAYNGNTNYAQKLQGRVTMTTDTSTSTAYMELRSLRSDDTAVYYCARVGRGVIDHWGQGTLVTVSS
VL: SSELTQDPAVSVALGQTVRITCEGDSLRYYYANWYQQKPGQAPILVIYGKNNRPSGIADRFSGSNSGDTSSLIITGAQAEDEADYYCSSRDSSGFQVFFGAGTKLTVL

Each variant's VL is given in full.
The read-out is the apparent dissociation constant on a log10 scale (nM): the lower, the stronger.
Replicates are averaged; those with no signal do not enter the mean.
"no signal" marks a missing value. The strain was present, yet no cells mated with the target were sequenced in any replicate, which points to weak or no binding.

| VL | log10 Kd (nM), mean | seen in |
|---|---|---|
| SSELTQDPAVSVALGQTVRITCEGDWMRYYYANWYQQKPGQAPILVIYGKNNRPSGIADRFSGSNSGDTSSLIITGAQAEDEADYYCSSRDSFGFQVFFGAGTKLTVL | 3.37 | 1/3 |
| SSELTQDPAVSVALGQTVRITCEGDSLRYYYANWYQQKPGQAPILVIYGKNMWPSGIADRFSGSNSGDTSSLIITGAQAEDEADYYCSSRDISGFQVFFGAGTKLTVL | no signal | 0/3 |
| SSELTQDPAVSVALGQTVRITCEGDDVRKYYANWYQQKPGQAPILVIYGKNNRPSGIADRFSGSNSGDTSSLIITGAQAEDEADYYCSSRDSSGFQVFFGAGTKLTVL | 3.82 | 3/3 |
| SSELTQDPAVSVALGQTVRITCEGDSWRYYYANWYQQKPGQAPILVIYGKNNRPSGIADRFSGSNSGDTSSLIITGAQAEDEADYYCSSRDKSGFQEFFGAGTKLTVL | 1.94 | 3/3 |
| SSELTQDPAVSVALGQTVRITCEIDSLRYYYAHWYQQKPGQAPILVIYGKNNRPSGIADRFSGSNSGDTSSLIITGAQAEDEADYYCSSSDSSGFQVFFGAGTKLTVL | 3.87 | 2/3 |
| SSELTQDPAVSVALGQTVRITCEGDSLRYKYAHWYQQKPGQAPILVIYGKNNRPSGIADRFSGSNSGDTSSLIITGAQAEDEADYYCSSRDSFGFQVFFGAGTKLTVL | 4.88 | 2/3 |
| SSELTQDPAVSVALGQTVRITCEGFSLRYYYANWYQQKPGQAPILVIYGKNDRPSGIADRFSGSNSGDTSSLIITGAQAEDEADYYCSSRDSSGFQHFFGAGTKLTVL | 3.47 | 3/3 |
| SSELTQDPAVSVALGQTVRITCEGESLRYYYANWYQQKPGQAPILVIYGKNNRPSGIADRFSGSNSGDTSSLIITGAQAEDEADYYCRSRDSSGFQVFFGAGTKLTVL | 3.08 | 3/3 |
| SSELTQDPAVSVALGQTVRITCNGDSLRYYYANWYQQKPGQAPILVIYGKNNRISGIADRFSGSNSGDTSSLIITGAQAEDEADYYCSSRWSSGFQVFFGAGTKLTVL | 3.49 | 3/3 |
| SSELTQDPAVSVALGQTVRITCEGDSLRLYYANWYQQKPGQAPILVIYGKNNRVSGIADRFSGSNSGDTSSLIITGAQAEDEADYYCSSRDSSCFQVFFGAGTKLTVL | 3.31 | 3/3 |
| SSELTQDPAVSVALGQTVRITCEGDSLRYYYANWYQQKPGQAPILVIYGDNNRESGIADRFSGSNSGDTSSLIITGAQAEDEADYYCSSRDSSGFQVFFGAGTKLTVL | 2.00 | 3/3 |
| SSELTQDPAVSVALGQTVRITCEGISLRYYYANWYQQKPGQAPILVIYGKCNRPSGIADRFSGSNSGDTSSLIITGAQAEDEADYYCSSRDSSFFQVFFGAGTKLTVL | 3.08 | 1/3 |
| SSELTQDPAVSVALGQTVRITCEGDSLRYYYANWYQQKPGQAPILVIYGKNNRITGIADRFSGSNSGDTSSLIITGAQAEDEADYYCSSRDSSGFWVFFGAGTKLTVL | no signal | 0/3 |
| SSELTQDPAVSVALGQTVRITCEGDSLRTYYANWYQQKPGQAPILVIYGKNNRPSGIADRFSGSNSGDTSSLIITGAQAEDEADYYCSSHASSGFQVFFGAGTKLTVL | 1.78 | 3/3 |
| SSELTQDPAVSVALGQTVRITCEMSSLRYYYANWYQQKPGQAPILVIYGKNNRPSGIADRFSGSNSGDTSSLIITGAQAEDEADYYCSSYDSSGFQVFFGAGTKLTVL | 4.58 | 2/3 |
| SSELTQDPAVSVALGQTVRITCEGDSLRYYYNNWYQQKPGQAPILVIYGKNNHPSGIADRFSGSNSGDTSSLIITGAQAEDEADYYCSSRASSGFQVFFGAGTKLTVL | 4.08 | 1/3 |
| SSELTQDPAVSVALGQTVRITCEGDSLRYYYANWYQQKPGQAPILVIYGKNNPWSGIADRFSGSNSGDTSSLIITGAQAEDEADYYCSSRDSSGFQVLFGAGTKLTVL | 4.18 | 2/3 |
| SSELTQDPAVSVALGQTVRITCEGDALRYYYANWYQQKPGQAPILVIYGKNNRPSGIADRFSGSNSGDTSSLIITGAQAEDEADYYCSSRDSSEFYVFFGAGTKLTVL | 2.98 | 3/3 |
| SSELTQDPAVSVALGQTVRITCEGDSLRYYYANWYQQKPGQAPILVIYGKWNRESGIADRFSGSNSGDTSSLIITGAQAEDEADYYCSSRDSSMFQVFFGAGTKLTVL | 2.70 | 1/3 |
| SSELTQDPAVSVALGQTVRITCEGDSLRYYYANWYQQKPGQAPILVIYGKNNRPSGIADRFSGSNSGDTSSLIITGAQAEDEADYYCQSRGSSGFGVFFGAGTKLTVL | 2.90 | 3/3 |

2 of these entries, quoted again:

VL	log10 Kd (nM), mean	seen in
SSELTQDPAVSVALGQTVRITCEGESLRYYYANWYQQKPGQAPILVIYGKNNRPSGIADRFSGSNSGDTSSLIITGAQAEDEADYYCRSRDSSGFQVFFGAGTKLTVL	3.08	3/3
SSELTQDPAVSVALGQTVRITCEGDSLRYYYNNWYQQKPGQAPILVIYGKNNHPSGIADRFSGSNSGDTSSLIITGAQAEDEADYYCSSRASSGFQVFFGAGTKLTVL	4.08	1/3

Nonspecific signal, from three strains lacking the peptide, appeared in 28% of pairings of library AAYL52, centred on 3.91 (5% of these signals below 2.90); values are not corrected for it.